Key:
Conditions in all cases: read-out: % Inhibition Avg
[1] = target: PIK3CB/PIK3R1 (p110 beta/p85 alpha) (Homo sapiens, UniProt P42338); assay: SelectScreen kinase profiling, Adapta
[2] = target: PIK3CB/PIK3R2 (p110 beta/p85 beta) (Homo sapiens, UniProt P42338); assay: SelectScreen kinase profiling, Adapta
[3] = target: PIK3CD/PIK3R1 (p110 delta/p85 alpha) (Homo sapiens, UniProt O00329); assay: SelectScreen kinase profiling, Adapta
CDK5 (Inactive) = CDK5 (Inactive) (Homo sapiens, UniProt Q00535); assay: SelectScreen kinase profiling, LanthaScreen binding

By UniProt entry, the sequences of proteins in these tests, tags left out. Where a name states a change or a piece, a line headed by the entry shows the natural chain unless it says otherwise.
UniProt P42338: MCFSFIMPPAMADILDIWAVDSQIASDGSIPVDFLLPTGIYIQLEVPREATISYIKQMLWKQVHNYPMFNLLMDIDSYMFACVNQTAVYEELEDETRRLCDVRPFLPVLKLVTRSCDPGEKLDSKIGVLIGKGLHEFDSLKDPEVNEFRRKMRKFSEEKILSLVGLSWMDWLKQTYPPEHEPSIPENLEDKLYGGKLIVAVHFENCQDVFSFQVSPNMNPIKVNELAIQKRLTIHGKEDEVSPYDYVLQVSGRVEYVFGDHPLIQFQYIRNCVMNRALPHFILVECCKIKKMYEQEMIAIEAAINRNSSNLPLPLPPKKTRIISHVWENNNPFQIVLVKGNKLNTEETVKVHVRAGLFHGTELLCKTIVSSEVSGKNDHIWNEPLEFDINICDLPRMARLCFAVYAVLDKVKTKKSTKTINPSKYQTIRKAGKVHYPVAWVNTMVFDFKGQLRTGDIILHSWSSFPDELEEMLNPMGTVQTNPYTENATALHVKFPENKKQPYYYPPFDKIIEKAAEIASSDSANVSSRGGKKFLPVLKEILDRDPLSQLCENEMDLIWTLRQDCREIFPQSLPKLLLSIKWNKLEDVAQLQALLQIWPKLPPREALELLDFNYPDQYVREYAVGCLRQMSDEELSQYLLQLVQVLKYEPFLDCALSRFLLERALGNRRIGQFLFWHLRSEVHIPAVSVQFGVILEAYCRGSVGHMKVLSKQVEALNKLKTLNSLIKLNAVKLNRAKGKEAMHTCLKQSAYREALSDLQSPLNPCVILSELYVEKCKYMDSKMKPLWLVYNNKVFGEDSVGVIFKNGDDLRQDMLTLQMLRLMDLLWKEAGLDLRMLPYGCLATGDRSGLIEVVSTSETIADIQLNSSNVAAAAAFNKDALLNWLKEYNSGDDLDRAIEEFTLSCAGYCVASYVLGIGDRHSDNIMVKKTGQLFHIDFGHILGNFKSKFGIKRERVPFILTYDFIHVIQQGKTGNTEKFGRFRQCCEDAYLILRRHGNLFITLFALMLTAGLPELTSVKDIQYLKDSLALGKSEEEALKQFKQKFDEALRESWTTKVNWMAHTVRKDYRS
UniProt O00329: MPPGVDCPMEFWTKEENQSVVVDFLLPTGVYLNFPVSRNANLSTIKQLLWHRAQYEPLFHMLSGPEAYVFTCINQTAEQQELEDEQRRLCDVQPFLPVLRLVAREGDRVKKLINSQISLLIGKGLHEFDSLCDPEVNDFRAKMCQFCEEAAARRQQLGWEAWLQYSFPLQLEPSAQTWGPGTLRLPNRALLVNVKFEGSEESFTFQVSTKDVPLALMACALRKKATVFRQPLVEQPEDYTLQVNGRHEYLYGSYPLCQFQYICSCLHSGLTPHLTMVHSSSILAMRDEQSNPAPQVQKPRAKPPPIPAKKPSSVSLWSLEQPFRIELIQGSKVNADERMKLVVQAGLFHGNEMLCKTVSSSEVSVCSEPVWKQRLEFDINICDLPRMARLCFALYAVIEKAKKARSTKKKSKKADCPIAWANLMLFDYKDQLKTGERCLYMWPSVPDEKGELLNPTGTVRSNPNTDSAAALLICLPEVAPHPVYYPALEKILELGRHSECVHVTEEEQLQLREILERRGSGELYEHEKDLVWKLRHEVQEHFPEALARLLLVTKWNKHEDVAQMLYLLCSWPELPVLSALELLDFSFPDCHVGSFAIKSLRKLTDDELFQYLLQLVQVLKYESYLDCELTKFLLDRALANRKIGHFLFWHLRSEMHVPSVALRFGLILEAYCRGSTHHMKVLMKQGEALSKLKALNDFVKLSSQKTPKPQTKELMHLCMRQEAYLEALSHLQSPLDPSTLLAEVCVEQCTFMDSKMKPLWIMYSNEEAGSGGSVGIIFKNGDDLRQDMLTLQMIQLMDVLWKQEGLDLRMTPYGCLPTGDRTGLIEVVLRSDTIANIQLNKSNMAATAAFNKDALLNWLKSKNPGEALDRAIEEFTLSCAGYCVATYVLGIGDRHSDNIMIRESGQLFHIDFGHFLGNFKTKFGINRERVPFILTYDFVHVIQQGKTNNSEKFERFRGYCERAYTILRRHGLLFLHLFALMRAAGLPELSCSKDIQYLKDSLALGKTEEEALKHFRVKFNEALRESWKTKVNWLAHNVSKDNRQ
UniProt Q00535, whole entry: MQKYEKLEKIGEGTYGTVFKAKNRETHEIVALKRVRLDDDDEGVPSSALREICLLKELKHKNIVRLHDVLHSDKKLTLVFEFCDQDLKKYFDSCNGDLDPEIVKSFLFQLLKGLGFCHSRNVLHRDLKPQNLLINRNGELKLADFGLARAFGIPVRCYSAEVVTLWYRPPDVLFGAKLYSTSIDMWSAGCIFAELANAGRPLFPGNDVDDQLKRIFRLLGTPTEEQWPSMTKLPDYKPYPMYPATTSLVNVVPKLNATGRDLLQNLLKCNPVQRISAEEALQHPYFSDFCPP

O=C(c1ccc(/C=C/c2n[nH]c3ccccc23)cc1)N1CCNCC1 [KW-2449]
inhibition at 10 µM [1]: -5%
inhibition at 10 µM [2]: -10%
inhibition at 10 µM [3]: 20%
inhibition at 10 µM (CDK5 (Inactive)): 8%

Reference: paper PMC6540285, “Evaluation of Protein Kinase Inhibitors with PLK4 Cross-Over Potential in a Pre-Clinical Model of Cancer” (International Journal of Molecular Sciences, 2019)
